Results on 1 molecule are retold here after publication PMC5033714 (Neuron, 2016).

Chains of the proteins cited; added tags and fusions are not shown. Lines headed by an entry give the natural chain unless they say otherwise; changes in a name come on top. Residues count along the entry.
UniProt Q00959, 20-1464 limits assumed: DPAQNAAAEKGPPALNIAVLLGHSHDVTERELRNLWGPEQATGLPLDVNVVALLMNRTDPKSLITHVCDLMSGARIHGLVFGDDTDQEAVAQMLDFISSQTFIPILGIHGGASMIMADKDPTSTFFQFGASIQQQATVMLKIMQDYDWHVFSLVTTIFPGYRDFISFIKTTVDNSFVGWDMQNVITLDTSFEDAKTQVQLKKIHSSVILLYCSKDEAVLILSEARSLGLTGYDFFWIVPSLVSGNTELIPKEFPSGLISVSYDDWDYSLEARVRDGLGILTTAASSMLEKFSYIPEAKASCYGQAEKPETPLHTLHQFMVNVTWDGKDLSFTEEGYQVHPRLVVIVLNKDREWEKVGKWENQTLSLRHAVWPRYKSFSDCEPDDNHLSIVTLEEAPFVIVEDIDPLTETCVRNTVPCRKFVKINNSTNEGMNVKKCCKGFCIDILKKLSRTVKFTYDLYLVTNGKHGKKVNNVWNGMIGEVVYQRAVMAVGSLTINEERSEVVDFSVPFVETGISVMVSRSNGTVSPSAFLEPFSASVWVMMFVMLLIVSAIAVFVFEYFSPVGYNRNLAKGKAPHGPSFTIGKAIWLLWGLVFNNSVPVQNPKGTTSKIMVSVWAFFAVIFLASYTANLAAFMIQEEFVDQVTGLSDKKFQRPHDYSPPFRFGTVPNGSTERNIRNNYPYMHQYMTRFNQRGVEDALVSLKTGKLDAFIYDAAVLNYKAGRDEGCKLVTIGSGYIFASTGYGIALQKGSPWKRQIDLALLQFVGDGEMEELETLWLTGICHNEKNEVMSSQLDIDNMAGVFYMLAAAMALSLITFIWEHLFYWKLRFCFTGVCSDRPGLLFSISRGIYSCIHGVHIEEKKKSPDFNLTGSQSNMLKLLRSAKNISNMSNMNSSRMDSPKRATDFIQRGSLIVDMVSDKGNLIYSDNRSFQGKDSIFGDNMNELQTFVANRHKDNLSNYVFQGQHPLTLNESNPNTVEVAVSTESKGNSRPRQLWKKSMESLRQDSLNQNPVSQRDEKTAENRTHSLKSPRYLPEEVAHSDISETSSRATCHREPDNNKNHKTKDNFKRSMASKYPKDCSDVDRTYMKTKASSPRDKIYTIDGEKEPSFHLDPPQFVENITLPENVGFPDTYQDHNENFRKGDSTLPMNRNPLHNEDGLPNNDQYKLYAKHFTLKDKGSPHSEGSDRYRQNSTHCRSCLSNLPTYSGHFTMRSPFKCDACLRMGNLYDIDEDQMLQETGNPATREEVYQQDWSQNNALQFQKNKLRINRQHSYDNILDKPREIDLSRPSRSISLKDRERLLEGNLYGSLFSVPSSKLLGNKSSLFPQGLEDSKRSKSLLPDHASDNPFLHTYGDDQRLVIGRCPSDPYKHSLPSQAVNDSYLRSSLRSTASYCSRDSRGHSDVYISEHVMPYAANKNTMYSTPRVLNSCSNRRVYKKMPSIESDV

The target in this experiment is GluN1-CC/2A receptors (GluN1-N499C+Q686C) (Rattus norvegicus, UniProt P35439+Q00959, N499C/Q686C). The format is cell-based. To be noted: 100 μM glutamate alone; glycine 300 μM, 7CKA 10 μM, TCN-201 5 μM, MPX-004 10 μM, MPX-007 30 μM.

Consider `NCC(=O)O` [glycine], for which the “effect on glutamate-activated responses from crosslinked GluN1-CC/2A” value is given as “not potentiated”.
